From PubChem BioAssay AID540308 (The Scripps Research Institute Molecular Screening Center, 2011)
The entries are a selection whose mix differs from that of the whole data set. The source made the active and inactive calls.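 Rule for the calls: active = activation above a per-plate cutoff, the mean activation of sample wells on that plate plus 3 SD (cut at about 8% in these data); inactive = the rest.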

Amino acid sequences for entries named in this document (tags omitted).
UniProt P32245, whole entry: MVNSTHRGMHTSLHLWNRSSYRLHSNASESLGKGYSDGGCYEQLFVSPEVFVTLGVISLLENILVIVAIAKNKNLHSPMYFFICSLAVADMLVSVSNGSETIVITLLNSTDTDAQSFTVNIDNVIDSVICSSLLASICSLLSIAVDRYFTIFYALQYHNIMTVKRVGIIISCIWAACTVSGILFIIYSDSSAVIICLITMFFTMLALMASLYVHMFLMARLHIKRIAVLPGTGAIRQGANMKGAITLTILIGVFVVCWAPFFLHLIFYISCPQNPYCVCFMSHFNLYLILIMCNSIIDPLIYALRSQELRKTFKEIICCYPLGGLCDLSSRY

molecular target: Melanocortin receptor 4 (Homo sapiens) (UniProt P32245); assay: MC4R agonists recruiting beta-arrestin, primary screen, cell-based, luminescence, agonist arm of biased-ligand search (AID 540308); details: U2OS MC4R beta-arrestin complementation, at 8.9 µM, active compounds read high, percent of melanotan II response, DMSO zero

Structure (SMILES)	activation
CCC(=O)N(c1ccccc1)C1(COC)CCN(CCn2nnn(CC)c2=O)CC1	inactive: -2.58%
CCC(=O)N(c1ccccc1)C1(COC)CCN(CCc2cccs2)CC1	inactive: -0.1%
